{"source": "PubChem BioAssay AID488794", "about": "(Sanford-Burnham Center for Chemical Genomics, 2010)", "note": "The list shows a part of the results, in another mix than the full data. Calls of active or inactive are those of the source. Rule as the data show it: active = inhibition above about 50%; inactive = the rest.", "data": [{"assay": "yeast-expressed human NALP3 blockade, retest – luminescence, single concentration, confirmation (AID 488794)", "conditions": "yeast expressing human NALP3, luminescence read-out; at 10 µM; active compounds read high", "values": [{"smiles": "CC(C)(C)OC(=O)N1CCC(Nc2ccccc2)CC1", "inhibition": "inactive: 40.8%"}]}]}
